## Binding of CDR-mutated scFvs to a peptide of the spike HR2 region

All variants were tested on one target, the spike HR2 peptide PDVDLGDISGINAS (SARS-CoV-2).

Parent: Ab-14, a human scFv built as VH, a (GGGGS)3 linker, VL. Only the CDRs of the heavy chain vary.
VH: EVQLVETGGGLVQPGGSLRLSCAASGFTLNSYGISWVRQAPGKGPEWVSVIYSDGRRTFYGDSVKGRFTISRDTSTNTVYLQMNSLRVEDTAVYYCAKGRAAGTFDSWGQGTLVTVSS
VL: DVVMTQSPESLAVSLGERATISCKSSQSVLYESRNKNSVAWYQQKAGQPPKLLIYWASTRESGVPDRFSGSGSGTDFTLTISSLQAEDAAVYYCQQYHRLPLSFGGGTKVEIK

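Phage display of a naive human antibody library on the peptide gave the parent. Variants in AAYL49 differ from the parent at up to three CDR positions; double and triple changes were sampled at random. In AlphaSeq, yeast of one mating type display the scFv and yeast of the other type display the target. After mating in shaken culture at 30 °C for 16 h, diploids were selected and their barcode pairs sequenced. Read counts were normalised to the haploid input and turned into Kd by a linear fit to BCL2-family pairs of known affinity, for each replicate. The assay was run in three technical replicates.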

Changes read parent residue, position, new residue, counted from the first residue of the VH shown. The read-out is the apparent dissociation constant on a log10 scale (nM): the lower, the stronger. An entry "nd" has no value in the source: the pair was not observed among the diploids in that replicate. This suggests poor binding but is not conclusive. Empty control strains, which show no peptide, gave a signal in 15% of pairings with library AAYL49; the median was 4.06 and 95% of these signals were weaker than 2.83. No background was subtracted. For each scFv, signals with the empty controls are counted beside the result, with their mean in brackets.

changes,log10 Kd (nM) by replicate,empty controls
R100F T104Q,3.82 / 5.20 / nd,4/9 (4.64)
S31W T58Y S63A,nd / nd / nd,0/9
G26H R100C T104W,nd / nd / nd,0/9
I51E G55I T104I,nd / nd / nd,0/9
Y60K D62H R100Y,nd / nd / nd,0/9
L29Q F59V F105P,nd / nd / nd,2/9 (3.29)
S53H V64G S107E,nd / nd / nd,1/9 (3.30)
D106G,0.62 / 0.98 / 1.09,1/9 (3.73)
S31R G55R V64R,nd / nd / nd,0/9
Y32N G33L F59S,nd / nd / nd,0/9
V50T G99Q,nd / nd / 3.54,0/9
V50G G55I Y60W,nd / 4.56 / nd,0/9
S53P F105S,2.36 / 2.03 / 2.52,3/9 (4.02)
I51L Y52F T104E,4.35 / 3.44 / nd,7/9 (4.08)
G26I G99F S107K,nd / nd / nd,0/9
S31T S35P G99I,nd / nd / nd,0/9
I34L D62S A102V,nd / nd / nd,2/9 (4.05)
S31A V50F Y60M,nd / nd / nd,0/9
G26D F27T F105R,4.93 / nd / 5.30,4/9 (4.42)
L29G G33Y A102D,nd / nd / nd,0/9
D54K R57C G61Y,nd / nd / nd,1/9 (2.68)
F27E F59I D106G,3.87 / 2.68 / 3.18,0/9
L29V,1.81 / 2.68 / nd,0/9
G26M R100P A102D,3.10 / 2.38 / 2.92,0/9
S31Q G33A A101I,nd / nd / nd,3/9 (4.41)
G61K G99S G103K,2.24 / 2.07 / 2.10,7/9 (4.46)
L29W G55D R100D,nd / nd / nd,1/9 (3.83)
R56D R57L D62Q,nd / nd / nd,2/9 (3.45)
F27G D106V S107L,nd / nd / nd,0/9
S31E G103H F105K,0.09 / 0.45 / 0.23,4/9 (4.97)
Y32T R57F D106E,nd / nd / 4.67,5/9 (4.38)
G61W D62I D106T,nd / nd / nd,1/9 (4.69)
S31Y Y32K S63K,nd / nd / 4.31,1/9 (2.58)
G99K G103W D106F,nd / 4.57 / nd,3/9 (4.37)
G26L S31K T104P,nd / nd / nd,1/9 (3.36)
Y52G D54P R100C,nd / nd / nd,2/9 (4.47)
R56L R100S A101F,4.55 / 3.64 / 4.48,9/9 (4.48)
V50W R57F R100K,nd / nd / nd,1/9 (3.69)

The first 5 variants above that were never detected:

| changes | log10 Kd (nM) by replicate | empty controls |
|---|---|---|
| S31W T58Y S63A | nd / nd / nd | 0/9 |
| G26H R100C T104W | nd / nd / nd | 0/9 |
| I51E G55I T104I | nd / nd / nd | 0/9 |
| Y60K D62H R100Y | nd / nd / nd | 0/9 |
| L29Q F59V F105P | nd / nd / nd | 2/9 (3.29) |

Data: MIT Lincoln Laboratory AlphaSeq set, Engelhart et al. 2022, doi:10.1038/s41597-022-01779-4, as distributed in FLAb.